From patent US20250049928A1, “ANESTHETIC PRODRUGS AND DERIVATIVES THEREOF FOR PROLONGED SENSORY SELECTIVE NERVE BLOCKAGE” (The Board of Trustees of The University of Alabama, priority 2023, published 2025)
Read-outs that look alike come from different tables or passages of the source.

Columns and labels:
[1] = tested on: sciatic nerve; experiment: Rat sciatic nerve block: nociceptive axon blockade (hotplate thermal latency); type: in vivo, Sprague-Dawley rats
[2] = tested on: sciatic nerves and surrounding tissues
[3] = tested on: rats; experiment: Irritancy: licking behavior after intraplantar administration; details: for total duration of licking behavior: first 5 minutes; for frequency of licking within 5 minutes after injection: n=4
[4] = tested on: sciatic nerve; experiment: Rat sciatic nerve in vivo permeability of fluorescein compounds (confocal); details: 4 hours after perineural injection of 0.3 mL in PBS
[5] = Log P; details: method not stated

COc1cc(CNC(=O)CCCC/C=C/C(C)C)ccc1OC[C@H]1OC(O)[C@H](O)[C@@H](O)[C@H]1O (some centres unmarked) [Gal-CAP prodrug, galactose-capsaicin prodrug]
successful nociceptive axon blockade ([1]; 3 mg in 0.3 mL PBS with 2.5% w/v Tween 20): 37.5%
duration of nociceptive axon blockade ([1]; single injection of 3 mg in 0.3 mL at sciatic nerve): 0.88 ± 1.46 h

COc1cc(CNC(=O)CCCC/C=C/C(C)C)ccc1O [capsaicin]
Inflammation Score (median; range 0-4) ([2]; 2 mg, 4 days): 3 (range [1-4])
Myotoxicity Score (median; range 0-6) ([2]; 2 mg, 4 days): 0
Inflammation Score (median; range 0-4) ([2]; 2 mg, 4 days, listed as Capsaicin): 3
Inflammation Score (median; range 0-4) ([2]; 2 mg, 14 days): 1.5
Myotoxicity Score (median; range 0-6) ([2]; 2 mg, 14 days): 0
myotoxicity score in one rat (out of 3), perifascicular internalization of the nucleus ([2]; 2 mg, after 4 days): 1
Inflammation Score (median; range 0-4) ([2]; 3 mg, 28 days): 1
Myotoxicity Score (median; range 0-6) ([2]; 3 mg, 28 days): 0
unmyelinated C-fibers / axon diameter by TEM ([2]; 3 mg, 28 days post-injection, versus no injection control): hypertrophy of C-fibers was observed
appearance of surrounding tissues at dissection ([2]; 2-3 mg perineural injection): reddish and swollen
toluidine blue stained sciatic nerve sections ([2]; 2-3 mg, 14 days after injection): Demyelinated axons were also observed
total duration of licking behavior ([3]; 0.05% (w/v)): 31.00 ± 14.03 s
frequency of licking within 5 minutes after injection ([3]; 0.05% (w/v)): 4.75±1.26 times
total duration of licking behavior ([3]; 0.1% (w/v)): 48.77 ± 19.23 s
frequency of licking within 5 minutes after injection ([3]; 0.1% (w/v)): 9.25±4.79 times

5-Carboxyfluorescein
fluorescence distribution / permeation into the sciatic nerve [4]: greater permeability into the nerve endoneurium
fluorescence distribution / permeation into the sciatic nerve ([4]; listed as 5 FAM): uniform fluorescence distribution was observed within and outside the sciatic nerve endoneurium

fluorescein isothiocyanate
Log P [5]: 3.77
